Here are results for 4 molecules from PubChem BioAssay AID686978 (National Center for Advancing Translational Sciences (NCATS), 2013).

Values joined by “and” are separate entries in the source; they are usually repeats but may differ in a detail not shown here. Identical values can stand only once. Only a part is listed here, and it is no random draw. Results filed as inconclusive are left out. Active and inactive are the calls of the source. Calls come from the whole dose curve; as a rule, active = well fitted inhibition curve with a large enough effect; inconclusive = small, poorly fitted or top-dose-only effect; inactive = flat fitted curve, though single readings scatter.
% is set by controls: 0 for no effect and ±100 for the full control effect; potency is the fitted concentration of half-maximal effect.

The experiment can be described thus: qHTS for Inhibitors of human tyrosyl-DNA phosphodiesterase 1 (TDP1): qHTS in cells in absence of CPT. Note: nearly all actives have a fitted effect of over 55% in size. The settings on record: DT40 Tdp1-/- hTDP1 cells, no CPT, ATP luminescence, 48 h; series mostly up to 46.2 µM; activity change, negative = growth inhibition: at the top concentration. A general note: Quantitative high-throughput screening tests each substance at several concentrations.
Consider `COc1ccc(CC(C)NCC(O)c2ccc(O)c(NC=O)c2)cc1` (centres undefined), for which the “activity change, negative = growth inhibition” value is inactive: -21.2%.

Turning to `N[C@@H](Cc1ccc(N(CCCl)CCCl)cc1)C(=O)O`, the Potency is active: 531 nM and active: 231 nM.

As to `COc1ccc(C[C@@H](C)NC[C@H](O)c2ccc(O)c(NC=O)c2)cc1`, the “activity change, negative = growth inhibition” value was inactive: -27.3%.

Consider `NC(Cc1ccc(N(CCCl)CCCl)cc1)C(=O)O` (centres undefined), for which the Potency is active: 5.17 µM and active: 224 nM.
